The values that follow come from paper PMC10573892, “β-Lactam TRPM8 Antagonists Derived from Phe-Phenylalaninol Conjugates: Structure–Activity Relationships and Antiallodynic Activity” (International Journal of Molecular Sciences, 2023).

Chains of the proteins cited; added tags and fusions are not shown.
UniProt Q8R455, whole entry: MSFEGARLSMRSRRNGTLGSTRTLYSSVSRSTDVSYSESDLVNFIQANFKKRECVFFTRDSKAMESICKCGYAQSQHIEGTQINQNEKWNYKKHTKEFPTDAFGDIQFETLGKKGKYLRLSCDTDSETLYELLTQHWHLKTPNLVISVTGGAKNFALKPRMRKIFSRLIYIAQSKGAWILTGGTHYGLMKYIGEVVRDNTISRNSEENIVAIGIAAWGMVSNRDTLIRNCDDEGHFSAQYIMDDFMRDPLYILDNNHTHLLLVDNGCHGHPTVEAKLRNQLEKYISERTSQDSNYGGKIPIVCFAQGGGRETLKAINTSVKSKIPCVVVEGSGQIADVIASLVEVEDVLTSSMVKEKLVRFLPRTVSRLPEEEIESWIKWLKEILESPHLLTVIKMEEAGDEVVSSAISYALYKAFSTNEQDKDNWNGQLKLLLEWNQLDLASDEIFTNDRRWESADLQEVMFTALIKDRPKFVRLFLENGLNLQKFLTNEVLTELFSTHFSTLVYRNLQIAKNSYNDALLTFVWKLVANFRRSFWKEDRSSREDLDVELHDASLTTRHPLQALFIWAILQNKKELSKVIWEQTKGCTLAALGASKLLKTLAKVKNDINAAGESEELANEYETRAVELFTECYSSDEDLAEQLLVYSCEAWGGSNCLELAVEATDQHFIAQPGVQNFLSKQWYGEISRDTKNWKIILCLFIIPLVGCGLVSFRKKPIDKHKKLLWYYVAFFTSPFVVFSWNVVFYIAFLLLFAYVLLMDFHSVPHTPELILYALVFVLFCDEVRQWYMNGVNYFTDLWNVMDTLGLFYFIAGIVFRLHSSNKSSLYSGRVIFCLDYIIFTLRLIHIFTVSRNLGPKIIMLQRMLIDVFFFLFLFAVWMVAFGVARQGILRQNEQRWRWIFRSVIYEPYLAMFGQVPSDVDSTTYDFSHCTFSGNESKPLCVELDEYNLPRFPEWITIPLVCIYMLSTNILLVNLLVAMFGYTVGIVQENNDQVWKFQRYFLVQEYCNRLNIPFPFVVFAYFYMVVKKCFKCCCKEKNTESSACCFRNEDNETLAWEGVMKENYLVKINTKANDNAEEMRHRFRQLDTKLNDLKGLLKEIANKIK

In the test the target is rat TRPM8 channel (rTRPM8) (Rattus norvegicus, UniProt Q8R455). Kind of test: Ca2+ microfluorimetry, menthol-induced Ca2+ entry in HEK293 cells overexpressing rTRPM8. The settings on record: Table 2; rTRPM8, HEK293, activation by 100 µM menthol.

On to `CC(C)CNC(=O)C1(Cc2ccccc2)CC(=O)N1C[C@H](Cc1ccccc1)NCc1ccc2ccccc2c1` (stereo partly shown), for which the IC50 turned out to be 1.81 µM. The same measure for `COC(=O)C1(Cc2ccccc2)CC(=O)N1C[C@H](Cc1ccccc1)NCc1ccccc1` (stereo partly shown): 3.95 µM; for `CC(C)CNC(=O)C1(Cc2ccccc2)CC(=O)N1C[C@H](Cc1ccccc1)NCc1ccc(F)cc1` (stereo partly shown): 8.32 µM; for `COC(=O)C1(Cc2ccccc2)CC(=O)N1C[C@H](Cc1ccccc1)NCc1ccc(C)cc1` (stereo partly shown): 3.9 µM. With `CC(C)CNC(=O)C1(Cc2ccccc2)CC(=O)N1C[C@H](Cc1ccccc1)NCc1cccc(F)c1` (stereo partly shown) the figure was 5.15 µM; with `CC(C)CNC(=O)C1(Cc2ccccc2)CC(=O)N1C[C@H](Cc1ccccc1)NCc1cccc(Oc2ccccc2)c1` (stereo partly shown), 8.22 µM. The same measure for `CC(C)CNC(=O)C1(Cc2ccccc2)CC(=O)N1C[C@H](Cc1ccccc1)NCc1cccc([N+](=O)[O-])c1` (stereo partly shown): 2.12 µM; for `CC(C)CNC(=O)C1(Cc2ccccc2)CC(=O)N1C[C@H](Cc1ccccc1)NCc1cccc(Cl)c1` (stereo partly shown): 2.57 µM. In turn, `Cc1cccc(CN[C@@H](Cc2ccccc2)CN2C(=O)CC2(Cc2ccccc2)C(=O)NCC(C)C)c1` (stereo partly shown) gave an IC50 of 3.97 µM. Against the preceding molecule, the IC50 is about 1.5-fold higher.

`COc1cccc(CN[C@@H](Cc2ccccc2)CN2C(=O)CC2(Cc2ccccc2)C(=O)NCC(C)C)c1` (stereo partly shown): the IC50 is 4.48 µM. The IC50 values of the last two molecules are within 1.5-fold of each other. With `COC(=O)C1(Cc2ccccc2)CC(=O)N1C[C@H](Cc1ccccc1)NCc1ccc2ccccc2c1` (stereo partly shown) the figure was 2.6 µM; with `CC(C)CNC(=O)C1(Cc2ccccc2)CC(=O)N1C[C@H](Cc1ccccc1)NCc1ccc(-c2ccccc2)cc1` (stereo partly shown), 4.57 µM; with `CC(C)CNC(=O)C1(Cc2ccccc2)CC(=O)N1C[C@H](Cc1ccccc1)NCc1cccc(C#N)c1` (stereo partly shown), 12.1 µM. The same measure for `CC(C)CNC(=O)C1(Cc2ccccc2)CC(=O)N1C[C@H](Cc1ccccc1)NCc1cccc(OCc2ccccc2)c1` (stereo partly shown): 3.27 µM. With `COC(=O)C1(Cc2ccccc2)CC(=O)N1C[C@H](Cc1ccccc1)NCc1cccc(Br)c1` (stereo partly shown) the figure was 1.1 µM; with `CC(C)CNC(=O)C1(Cc2ccccc2)CC(=O)N1C[C@H](Cc1ccccc1)NCc1cccc(-c2ccccc2)c1` (stereo partly shown), 2.03 µM.

Molecule `CC(C)CNC(=O)C1(Cc2ccccc2)CC(=O)N1C[C@H](Cc1ccccc1)NCc1cccc(I)c1` (stereo partly shown) came in with a concentration for half-maximal inhibition (IC50) of 3.83 µM. With `CC(C)CNC(=O)C1(Cc2ccccc2)CC(=O)N1C[C@H](Cc1ccccc1)NCc1cccc(Br)c1` (stereo partly shown) the figure was 3.3 µM.

On to `COC(=O)C1(Cc2ccccc2)CC(=O)N1C[C@H](Cc1ccccc1)NCc1cccc(C)c1` (stereo partly shown), for which the IC50 is 3.58 µM.

A word on the IC50: it is the concentration needed to halve the response being measured. A higher IC50 goes with a need for much substance.
